Yeast mating assay 1: variants of the scFv Ab-14

Binding partner: SARS-CoV-2 spike HR2 peptide, sequence PDVDLGDISGINAS.

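The parent was found by panning a naive human phage display library on the peptide. Library AAYL49 holds single substitutions and randomly drawn double and triple substitutions in the CDRs. In AlphaSeq, yeast of one mating type display the scFv and yeast of the other type display the target. After mating in shaken culture at 30 °C for 16 h, diploids were selected and their barcode pairs sequenced. Read counts were normalised to the haploid input and turned into Kd by a linear fit to BCL2-family pairs of known affinity, for each replicate. Mating was done three times.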

The variants keep the light chain, the linker and the frameworks of Ab-14 (scFv order VH, a 15-residue (Gly4Ser)3 linker, VL).
VH: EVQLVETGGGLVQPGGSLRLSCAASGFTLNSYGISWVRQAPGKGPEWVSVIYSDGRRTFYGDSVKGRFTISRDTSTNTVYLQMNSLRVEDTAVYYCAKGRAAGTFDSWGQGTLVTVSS
VL: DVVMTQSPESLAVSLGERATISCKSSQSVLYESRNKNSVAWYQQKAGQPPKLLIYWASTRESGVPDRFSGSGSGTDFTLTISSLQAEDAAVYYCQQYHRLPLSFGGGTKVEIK

The parent's heavy chain CDRs are GFTLNSYGIS, VIYSDGRRTFYGDSVK, GRAAGTFDS; each variant's own CDRs replace them letter for letter. This list gathers variants with a substitution at F59 (VH, numbered from residue 1). Values are apparent Kd, the geometric mean of the replicates that gave a signal; lower means stronger binding. Where no diploid with the target was found in any replicate, the entry reads "nd": below detection, most likely a poor binder, though not proof of it. Nonspecific signal, from three strains lacking the peptide, appeared in 15% of pairings of library AAYL49, centred on 11 µM (5% of these signals below 680 nM); values are not corrected for it. In this assay the parent's reference entry averaged 4.4 nM; its copy inside this library read 13 µM (one replicate of three).

The variant GFTKNSYGIS / VIYSDGRRTKYGDSVG / GRAAGTFDS gave 200 µM (1 of 3 replicates).
The variant GFTLNSYGIS / VIYSDGRRTKYGDSVK / GRAAGTFDN gave nd (0 of 3 replicates).
The variant GFTLNSYGIS / VIYSRGRRTAYGDSVK / GRAAGTFDH gave nd (0 of 3 replicates).
The variant GFTLNFYGIS / VIYSDGCRTMYGDSVK / GRAAGTFDS gave 17 µM (1 of 3 replicates).
The variant GFTLNSYGSS / VIYMDGRRTKYGDSVK / GRAAGTFDS gave 1.2 µM (1 of 3 replicates).
The variant GFTLASYGIS / VIYSDGRRTQYGDSEK / GRAAGTFDS gave 15 µM (2 of 3 replicates).
The variant GFTLNSYGIS / VIYSDGRRTPYGDSVK / GRAAGTFDS gave 500 µM (2 of 3 replicates).
The variant GFTLNSYGIS / VIYSDGRRTEYGDSVK / GRANNTFDS gave 48 nM (3 of 3 replicates).
The variant GFTQNSYGIS / VIYSDGRWTQYGDSVK / GRAAGTFDS gave nd (0 of 3 replicates).
The variant GFTLSSYGIS / VIYSDGRRTSYGDSVK / GRAAGQFDS gave nd (0 of 3 replicates).
The variant GWKLNSYGIS / VIYSDGRRTNYGDSVK / GRAAGTFDS gave 24 µM (1 of 3 replicates).
The variant GFTLNSYGIQ / VIYSDGRRTSPGDSVK / GRAAGTFDS gave nd (0 of 3 replicates).
The variant GFSLNSYGIS / VIYSDGRRTAYGCSVK / GRAAGTFDS gave 6.4 nM (3 of 3 replicates).
The variant TFTLNSYGIS / VIYSDGRRTDYGDSVK / GRAHGTFDS gave nd (0 of 3 replicates).
The variant GFTLNSYGIS / VIYSDGRRTCYGDSVK / KNAAGTFDS gave 3.5 µM (1 of 3 replicates).
The variant GFTLNSYGIS / VIYFDGRRTMYGDSVK / GRAAGTFKS gave 8.4 µM (1 of 3 replicates).
The variant GFTLNSYGII / VIFSDGRRTLYGDSVK / GRAAGTFDS gave nd (0 of 3 replicates).
The variant GWTLNSYGIS / VIYSDGRRTAYGDSVK / GRAAGTFDS gave 5.6 nM (3 of 3 replicates).
The variant GFTLNSYPIS / VIYSDGRRTWYGDSVG / GRAAGTFDS gave 4.7 µM (1 of 3 replicates).
The variant GFTLNSYGIS / VIYSDGARTTYGDSPK / GRAAGTFDS gave nd (0 of 3 replicates).
The variant GFTLNSYGIS / VIYSDGRRTVYTDAVK / GRAAGTFDS gave 20 nM (3 of 3 replicates).
The variant GFTLNSYGKS / VIYSDGRRTKYGDSVK / ARAAGTFDS gave nd (0 of 3 replicates).
The variant GFTLNSYGIS / VIYSKGRRTKYGDSMK / GRAAGTFDS gave 36 µM (1 of 3 replicates).
The variant PFTLNSYGIS / VIYSDGRRTNYGDSVP / GRAAGTFDS gave nd (0 of 3 replicates).
The variant GATLNSYGIS / VIYSDGRRTGYGDSVK / GRAAGTFGS gave nd (0 of 3 replicates).
The variant GFTLNSTGIS / VIYSDGRRTAYGESVK / GRAAGTFDS gave 4.1 µM (2 of 3 replicates).
The variant GFTLNSYGIS / VIYSDGRRTPYGDSVK / GRALITFDS gave nd (0 of 3 replicates).
The variant GFTSNSYGES / VIYSDGRRTNYGDSVK / GRAAGTFDS gave nd (0 of 3 replicates).
The variant GFTLNSYGIS / KIYSDGRRTWYGDSVY / GRAAGTFDS gave 32 µM (1 of 3 replicates).
The variant GFELNYYGIS / VIYSDGRRTTYGDSVK / GRAAGTFDS gave 270 nM (3 of 3 replicates).

Data: MIT Lincoln Laboratory AlphaSeq set, Engelhart et al. 2022, doi:10.1038/s41597-022-01779-4, as distributed in FLAb.